Measurements: patent US20050008623A1, “In vitro production of dendritic cells from CD14+ monocytes” (priority 2001, published 2005)

Test system: Langerhans cells generated in vitro
Test: Chemoattraction and migration of Langerhans cells of Example 6
Assay type: cell-based, human

Q: How did the “migration of Langerhans cells” value turn out when `O=[N+]([O-])c1cc([N+](=O)[O-])c(S(=O)(=O)O)c([N+](=O)[O-])c1` was run?
A: migrating
